# The supplement of paper PMC12297408
# This is a selection; strong and weak results do not stand in their true shares.
# Tested on: Plasmodium falciparum NF54/iGP1_RE9H ulg8 stage V gametocytes
# Experiment: gametocyte viability (luciferase signal relative to DMSO control) (% of DMSO control); higher = less gametocytocidal activity, active = 50 or less
# Conditions: exposure time: 72 h
# Summary of the method: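 Gametocyte viability is reported relative to the average of DMSO vehicle wells on the same plate. The assay used day-12 stage V NF54/iGP1_RE9Hulg8 gametocytes at ~2.5% gametocytemia and 3% hematocrit, in 0.5% Albumax II medium, added to 96-well plates of compounds spotted in nanolitre volumes for final 10 µM or 1 µM, one well each. After 72 h at 37 °C, 90 µl was mixed with 10 µl D-luciferin (30 mg/ml), and luminescence was recorded with an IVIS Lumina II.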
smiles,measurement,setting,value
COc1cc(Br)c(C[N+]2(CCOCCC3CCC4CC3C4(C)C)CCOCC2)cc1OC (configuration not stated) [Pinaverium bromide],gametocyte viability,concentration: 1 µM,inactive: 74.1
same,gametocyte viability,concentration: 10 µM,active: 28.1
